Laboratory results published in patent US20100267637A1, “TREATMENT OF MELANOMA WITH ALPHA THYMOSIN PEPTIDES IN COMBINATION WITH A KINASE INHIBITOR” (SciClone Pharmaceuticals, Inc., priority 2007, published 2010).

System: murine B16 melanoma cells
Experiment: Anti-tumor effect: tumor size / tumor volume in mice bearing subcutaneous B16 melanoma
Format: in vivo, C57BL/6 mice
Conditions: for Tumor volume: Day 12; for Tumor volumes on Day 15: Length × Width × Width/2
Protocol: The toxic effects of the dosing regimens were also monitored. […] Meanwhile 9H10 was given in two groups via i.p. on Day 3, 6 and 9. […] Tumor volume and body weight were measured every three days, and tumor weights were measured on Day 16 at the end of the study.
As per aseptic tissue culture procedures, one vial of B16 melanoma cells was removed from the liquid nitrogen stock, and placed into a 37° C. water bath. Gentle swirling was conducted until the content of the vial was thawed. Using tissue culture/sterile procedures, the cells were immediately centrifuged with a TD5A-WS centrifuge at 1000 rpm, 20-25° C., 5 min. After centrifugation, the cells were suspended in 0.1 to 0.5 mL normal saline (NS) and subcutaneously injected into 10 mice (0.1 mL/mouse, about 1×10^6 cells). After 7-10 days, when the tumor diameter was approximately 1 cm, the animals were euthanized with CO2 overdose and the tumors excised. The procedure was repeated with 20 mice to generate a sufficient number of B16 melanoma cells with adequate transplantability.
On the day of tumor implantation, approximately 1×10^6 cells in 0.1 mL were subcutaneously injected on the right axillary area of each mouse. The day of tumor implantation was defined as Day 0.
On Day 3, the animals were randomly assigned into nine different weight-matched and tumor-size-matched groups. Dosing was started on Day 3 using the regimen according to Table 2.
From Day 1 to Day 15, mortality and moribundity were checked twice daily, the body weights were recorded once every 3 days, and tumors were measured using a caliper once every 3 days. At the end of the study (Day 16), the animals were euthanized by CO2 asphyxiation, and the tumors were excised and weighed.
Based on the tumor size, the tumor volume (TV) was calculated with the formula: [TV=(Length×Width×Width)/2]. And the percent inhibition (PI) of TV (PITV) was calculated according to the equation below:
PITV(%)=(TV vehicle−TVdrug treated)/TV vehicle×100
Inter-group comparison was performed in terms of tumor volume, tumor weight and body weight, using a student's t test. P values of less than 0.05 were considered to be statistically significant.

CNC(=O)c1cc(Oc2ccc(NC(=O)Nc3ccc(Cl)c(C(F)(F)F)c3)cc2)ccn1 [Sorafenib]
Tumor volume (animal F1): 0.0135 cm^3 | Tumor volume (animal F3): 0.0135 cm^3 | Tumor volume (animal F4): 0.0135 cm^3 | Tumor volume (animal F5): 0.0135 cm^3 | Tumor volume (animal M2): 0.0135 cm^3 | Tumor volume (animal M5): 0.0135 cm^3 | Tumor volumes on Day 15 (animal F1): 0.1080 cm^3 | Tumor volumes on Day 15 (animal F3): 0.1080 cm^3 | Tumor volumes on Day 15 (animal M4): 0.0135 cm^3
